These results are taken from patent publication EP4821935A1, “MACROCYCLIC COMPOUND CONTAINING AMIDE SUBSTITUTION” (dated 2026).

In one assay the test system is AsPc-1 cells. Nature of the assay: Assay for inhibitory activity for AsPc-1 cell proliferation (CCK-8). The settings on record: read-out: Inhibitory activity IC50 for AsPc-1 cell proliferation, 72 h incubation, CCK-8, 5000 nM-0.31 nM. The method, then: AsPc-1 cells in a well-growing state were collected into a centrifuge tube, adjusted to a cell density of 3 × 10^4 cells/mL, and inoculated onto a 96-well plate (100 µL/well). The compounds were added using a nanoliter pipettor such that the final concentrations of the compounds were 5000 nM-0.31 nM (the addition was performed in duplicate). Meanwhile, a control was set. After 72 h of incubation in the cell incubator, the assay reagent CCK-8 (manufacturer: Dojindo Laboratories; 10 µL/well) was added. After 3 h of incubation in the cell incubator, the absorbance values were measured at 450 nm on a PerkinElmer Envision microplate reader. A four-parameter analysis was performed, a dose-response curve was fitted, and IC50 was calculated. A represents that IC50 < 100 nM; B represents that 100 nM ≤ IC50 < 500 nM.

Another assay relates to Capan-1 cells. Briefly: Assay for inhibitory activity for Capan-1 cell proliferation (CCK-8). The settings on record: read-out: Inhibitory activity IC50 for Capan-1 cell proliferation, 5 days incubation, CCK-8, 20000 nM-9.1 nM. The method, then: Capan-1 cells in a well-growing state were collected into a centrifuge tube, adjusted to a cell density of 1.5 × 10^4 cells/mL, and inoculated onto a 96-well plate (100 µL/well). The compounds were added using a nanoliter pipettor such that the final concentrations of the compounds were 20000 nM-9.1 nM (the addition was performed in duplicate). Meanwhile, a control was set. After 5 days of incubation in the cell incubator, the assay reagent CCK-8 (manufacturer: Dojindo Laboratories, Beijing; 10 µL/well) was added. After 4 h of incubation in the cell incubator, the absorbance values were measured at 450 nm on a PerkinElmer Envision microplate reader. A four-parameter analysis was performed, a dose-response curve was fitted, and IC50 was calculated. A represents that IC50 < 100 nM; B represents that 100 nM ≤ IC50 < 500 nM. Table 1. Results of cell proliferation inhibition assay for compounds

Take `CCn1c(-c2cc(N3CCN(C)CC3)cnc2[C@H](C)OC)c2c3cc(ccc31)-c1csc(n1)C[C@H](NC(=O)[C@H](F)Cl)C(=O)N1CCC[C@H](N1)C(=O)OCC(C)(C)C2`: the IC50 in the assay on AsPc-1 cells and in the assay with Capan-1 cells was less than 100 nM in each case.
